Data on one molecule can be found in patent US11168102B1, “Bicyclic heteroaryl compounds and uses thereof” (Revolution Medicines, Inc., priority 2019, dated 2021).

In the test the test system is cellular pERK in PC-9 cells (EGFR Ex19Del). Kind of test: Potency assay: pERK (AlphaLISA SureFire Ultra p-ERK1/2) in PC-9 cells. Particulars: Homo sapiens, PC-9, 1 h, read-out: SOS1 pERK IC50. The test is classed as cell-based. (In general: Alpha assays give light when donor and acceptor beads are brought close together.)

On to `C[C@@H](Nc1ncnc2c1cc(C1CCS(=O)(=NC#N)CC1)c(=O)n2C)c1cccc(C(F)F)c1F` (stereo partly drawn) [Example 47, [4-[4-[[(1R)-1-[3-(difluoromethyl)-2-fluoro-phenyl]ethyl]amino]-8-methyl-7-oxo-pyrido[2,3-d]pyrimidin-6-yl]-1-oxo-thian-1-ylidene]cyanamide], for which the IC50 (as a rule, the concentration at which inhibition is half-maximal) was determined as 54.7 nM.
